## Measured affinities in a library of Ab-14 heavy chain variants

From the AlphaSeq antibody data of Li et al. 2023 (doi:10.1038/s41467-023-39022-2), copy in the FLAb collection.

Antigen: PDVDLGDISGINAS, a 14-residue peptide of the SARS-CoV-2 spike HR2 region.

The variants keep the light chain, the linker and the frameworks of Ab-14 (scFv order VH, a 15-residue (Gly4Ser)3 linker, VL).
VH: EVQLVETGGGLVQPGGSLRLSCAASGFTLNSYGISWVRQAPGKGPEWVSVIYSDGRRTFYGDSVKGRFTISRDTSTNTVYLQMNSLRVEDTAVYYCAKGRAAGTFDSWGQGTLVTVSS
VL: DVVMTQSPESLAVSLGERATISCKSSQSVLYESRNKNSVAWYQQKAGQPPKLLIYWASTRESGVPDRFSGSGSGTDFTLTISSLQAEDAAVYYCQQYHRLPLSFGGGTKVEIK

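Phage display of a naive human antibody library on the peptide gave the parent. The variants were designed computationally from a first round of random CDR variants and then made and measured. Group labels follow the data file (Ctrl: baseline library sampled from a position-specific scoring matrix, with some repeated check sequences; Rand: our label for a block that the file lists under HC and that is probably the random mutants of the ten best first-round binders; GP: Gaussian process model; GPLM: also part of the Gaussian process libraries; HC: hill climbing; Gen: genetic algorithm; Gibbs: Gibbs sampling; a sequence that several methods proposed may carry one label only). Affinity was read by AlphaSeq, a pooled yeast mating assay with surface-displayed partners. Pairs that bind mate more often; barcode pairs of the diploids are counted by sequencing. The ratio of observed to expected reads was calibrated, replicate by replicate, on BCL2-family standards whose Kd was known from biolayer interferometry. Mating was done six times.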

Changes read parent residue, position, new residue, counted from the first residue of the VH shown.
This list holds designs with at most six substitutions.
The Kd shown is the geometric mean over detected replicates; a lower Kd is a better binder.
"nd" marks a missing value. The strain was present, yet no cells mated with the target were sequenced in any replicate, which points to weak or no binding.
The authors' rule: three or more of the six replicates give a measured affinity, fewer mean a poor binder.

Variant S31D/A102D/G103L/D106I [Rand] showed nd (0 of 6 replicates; controls 0 of 18). For F27K/S63D/R100Q/A101T/S107V [GP_Gibbs], the assay gave 20 nM (3 of 6 replicates; controls 0 of 18). Variant T28D/T104K/D106R [GP_HC] gave nd (0 of 6 replicates; controls 0 of 18). For R56W [Ctrl], the assay gave nd (0 of 6 replicates; controls 0 of 18). Variant S31Q/S35N/G61S/T104F [Rand] showed 13 µM (2 of 6 replicates; controls 1 of 18). Variant T28Q/S31E/S63Q/A101Q [GP_Gen] showed 13 nM (5 of 6 replicates; controls 0 of 18). Variant S31D/G61S/A101T/S107A [GPLM_Gibbs] showed 240 pM (6 of 6 replicates; controls 0 of 18). Variant T28S/S31E/G61A/S63D/A101T [GPLM_Gen] gave 140 pM (6 of 6 replicates; controls 0 of 18).

For A101L/S107N [Ctrl], the assay gave 480 nM (1 of 6 replicates; controls 0 of 18). With T28S/S31M/A101E/S107T [GP_Gibbs] the result was 2.4 nM (5 of 6 replicates; controls 0 of 18). For S31D/S53A/R100A/A101N/A102D [Ctrl], the assay gave nd (0 of 6 replicates; controls 1 of 18). For T28S/S31T/A101Q [GPLM_Gen], the assay gave 1.1 nM (5 of 6 replicates; controls 0 of 18). Variant D62N/R100N/A101V/S107K [Ctrl] showed 20 nM (6 of 6 replicates; controls 1 of 18). For S31E/G103E/S107V [GP_HC], the assay gave nd (0 of 6 replicates; controls 0 of 18). Variant G26K/T28D/G61I/A101N [GP_Gibbs] gave 31 nM (6 of 6 replicates; controls 0 of 18). Variant T28D/G61T/A101S [GPLM_Gen] showed 4.2 nM (6 of 6 replicates; controls 1 of 18).

For N30D/G61A/S63A/S107V [GP_Gibbs], the assay gave 4.0 nM (6 of 6 replicates; controls 0 of 18). Variant A102I [Ctrl] gave nd (0 of 6 replicates; controls 0 of 18). Variant T28E/S31E/R56Q/A101T [GP_Gen] showed 1.5 nM (6 of 6 replicates; controls 1 of 18). With R56L/R100Q/A101E/S107T [GP_Gibbs] the result was 31 nM (6 of 6 replicates; controls 0 of 18). For L29A/N30D/F105A/D106L [Rand], the assay gave nd (0 of 6 replicates; controls 0 of 18). For T28S/S31E/S63E/A101T [GP_Gen], the assay gave 380 pM (6 of 6 replicates; controls 0 of 18). For T28N/D54N/R56E/G61I [Ctrl], the assay gave nd (0 of 6 replicates; controls 0 of 18). Variant T28D/F59A/D106N [GPLM_HC] showed 8.5 nM (6 of 6 replicates; controls 0 of 18).

Variant T28E/A101T/S107Q [GPLM_Gen] gave 15 nM (6 of 6 replicates; controls 1 of 18). Variant L29V/A102T [Ctrl] showed nd (0 of 30 replicates; controls 1 of 90). Variant F27V/R56E/A101L [Ctrl] showed 110 nM (1 of 6 replicates; controls 1 of 18). For G61I/R100W/A101V [GPLM_HC], the assay gave 160 nM (3 of 6 replicates; controls 0 of 18). Variant S31D/R56K/F59Q/G61S [GPLM_HC] showed 15 nM (6 of 6 replicates; controls 3 of 18). With G61S/D106N [Ctrl] the result was nd (0 of 6 replicates; controls 0 of 18). With T28D/Y52C/T104W/D106N [Rand] the result was nd (0 of 6 replicates; controls 0 of 18). Variant T28S/S31E/R100H/S107N [GP_HC] gave nd (0 of 6 replicates; controls 0 of 18).

Three control strains display no target. For all heavy chain designs, 1% of the pairings with them gave a signal, with a median of 120 nM and one signal in twenty below 7.0 nM, so weak values seen in few replicates may be background. The control count says in how many pairings with the empty strains this scFv gave a signal.
The parent sequence was in this pool as ten entries: three were never detected, three once, and four in most replicates, with averages from 2.2 nM to 240 nM.
Values of this round are not directly comparable with the first-round values of the same sequences.
A sequence that the file lists under several names has all its replicates pooled.